The structures appear in SMILES notation.

Amino acid sequences for entries named in this document (tags omitted). A change or cut given only in a name is not applied to a line headed by its entry. Residues count along the entry.
UniProt P40763, whole entry: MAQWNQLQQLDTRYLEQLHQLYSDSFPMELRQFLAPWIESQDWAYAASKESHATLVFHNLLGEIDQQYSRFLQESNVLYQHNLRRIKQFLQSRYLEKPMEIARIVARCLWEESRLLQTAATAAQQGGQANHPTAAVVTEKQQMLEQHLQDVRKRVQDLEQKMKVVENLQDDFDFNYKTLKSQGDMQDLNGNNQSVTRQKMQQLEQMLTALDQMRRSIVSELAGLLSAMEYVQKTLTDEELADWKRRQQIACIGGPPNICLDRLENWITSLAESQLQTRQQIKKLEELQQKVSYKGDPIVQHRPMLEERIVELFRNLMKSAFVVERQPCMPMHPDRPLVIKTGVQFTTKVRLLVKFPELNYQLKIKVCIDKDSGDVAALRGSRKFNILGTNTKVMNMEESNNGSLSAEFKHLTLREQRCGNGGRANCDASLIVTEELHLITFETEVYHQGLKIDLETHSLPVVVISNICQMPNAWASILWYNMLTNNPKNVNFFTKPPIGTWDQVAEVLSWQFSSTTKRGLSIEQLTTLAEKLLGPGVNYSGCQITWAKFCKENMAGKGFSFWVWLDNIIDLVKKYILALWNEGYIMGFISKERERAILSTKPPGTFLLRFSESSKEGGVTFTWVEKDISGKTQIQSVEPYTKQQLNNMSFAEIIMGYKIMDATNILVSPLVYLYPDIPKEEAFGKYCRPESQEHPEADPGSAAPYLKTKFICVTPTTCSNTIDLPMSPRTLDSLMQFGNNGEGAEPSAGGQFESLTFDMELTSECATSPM
UniProt P40763, whole entry D661Y: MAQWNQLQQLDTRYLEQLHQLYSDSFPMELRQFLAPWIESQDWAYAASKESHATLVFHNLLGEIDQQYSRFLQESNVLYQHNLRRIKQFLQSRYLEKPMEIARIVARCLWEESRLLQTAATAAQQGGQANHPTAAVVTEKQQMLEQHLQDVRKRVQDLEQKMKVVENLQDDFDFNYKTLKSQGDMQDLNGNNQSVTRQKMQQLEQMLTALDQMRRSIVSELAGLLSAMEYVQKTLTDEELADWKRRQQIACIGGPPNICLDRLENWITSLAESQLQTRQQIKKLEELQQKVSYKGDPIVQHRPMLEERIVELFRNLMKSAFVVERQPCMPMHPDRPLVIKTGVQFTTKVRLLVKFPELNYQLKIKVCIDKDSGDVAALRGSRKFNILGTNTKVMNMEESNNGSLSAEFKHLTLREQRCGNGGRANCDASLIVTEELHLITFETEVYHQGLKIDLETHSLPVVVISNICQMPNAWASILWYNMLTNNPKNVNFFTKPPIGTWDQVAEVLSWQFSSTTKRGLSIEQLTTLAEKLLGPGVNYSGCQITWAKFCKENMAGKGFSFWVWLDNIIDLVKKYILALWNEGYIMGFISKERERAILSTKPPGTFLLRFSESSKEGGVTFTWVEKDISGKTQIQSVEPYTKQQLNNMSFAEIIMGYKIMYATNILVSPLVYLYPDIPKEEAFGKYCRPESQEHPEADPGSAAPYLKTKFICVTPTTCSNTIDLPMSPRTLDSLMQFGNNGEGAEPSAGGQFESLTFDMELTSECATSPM
UniProt P40763, 2-770 D661Y limits assumed: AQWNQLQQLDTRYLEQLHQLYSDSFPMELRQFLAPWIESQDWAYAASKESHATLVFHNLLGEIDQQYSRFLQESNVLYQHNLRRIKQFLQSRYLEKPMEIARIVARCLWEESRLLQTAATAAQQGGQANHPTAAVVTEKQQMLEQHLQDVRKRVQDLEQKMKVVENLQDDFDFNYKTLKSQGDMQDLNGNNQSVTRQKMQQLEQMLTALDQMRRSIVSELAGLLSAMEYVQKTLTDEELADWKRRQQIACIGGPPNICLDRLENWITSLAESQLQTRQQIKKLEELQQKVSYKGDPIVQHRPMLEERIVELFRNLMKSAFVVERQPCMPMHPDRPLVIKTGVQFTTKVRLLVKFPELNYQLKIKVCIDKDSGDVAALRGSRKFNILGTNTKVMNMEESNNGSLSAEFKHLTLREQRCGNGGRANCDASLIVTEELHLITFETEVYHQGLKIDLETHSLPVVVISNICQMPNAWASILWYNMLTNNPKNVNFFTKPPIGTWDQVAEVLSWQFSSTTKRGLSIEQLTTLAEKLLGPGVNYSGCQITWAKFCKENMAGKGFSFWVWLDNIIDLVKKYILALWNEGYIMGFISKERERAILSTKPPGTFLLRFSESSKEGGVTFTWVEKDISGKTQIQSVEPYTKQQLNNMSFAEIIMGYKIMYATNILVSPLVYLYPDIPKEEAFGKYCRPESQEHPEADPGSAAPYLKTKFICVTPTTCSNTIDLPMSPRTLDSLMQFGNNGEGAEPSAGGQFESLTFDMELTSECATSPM

The target in experiment [1] is T1, STAT3 (Homo sapiens, UniProt P40763). In words: STAT3 MSD assay. The conditions noted are these: for DC50: read-out: STAT3 MSD DC50. The class given is cell-based. How it is done:
(§1) 100 nl of compounds were added into the intermediate plate with Echo (Labcyte 550) from source plate containing a 3-fold serial dilution from top concentration of 1 mM. Cells were seeded into 96-well plates (4×10^4 cells/well/100 ul media), mixed well, and incubated for 24 hours. The media was aspirated from the cultures and 60 μL pre-chilled PIPA lysis buffer (Boston BioProducts BP-115D) with protease/phosphatase inhibitor (Roche 05892791001/Roche 04906837001) was added into the well to lyze the cells for 20 minutes at 4° C. The MSD plate (L15XA) was coated with 2 ug/ml capture antibody (ab119352) in PBS and incubated at 4° C. overnight. The next day, the plate was washed three times with TBST (CST #99975), 150 μL/well. MSD plates were blocked with 150 μL blocking buffer per well and shaken for 1 hr at RT and 600 rpm. The blocking buffer was 3% Blocker A (MSD, R93BA-4) in TBST. The MSD plate was washed three times with 150 μL/well of TBST and 70 μL cell lysate was added into the well and shaken for 1 hour at RT and 600 rpm. The MSD plate was washed three times with 150 μL/well of TBST and added 25 μL/well of detection antibody (ab68153) to a final concentration of 1 μg/ml diluted in 1% blocking buffer and shaken for 1 hour at RT and 600 rpm. MSD plate was washed three times with 150 μL/well of TBST and added 25 μL/well of SULFO-TAG anti-rabbit antibody (MSD, R32AB-1) to a final concentration of 1 μg/mL diluted in 1% blocking buffer and shaken for 1 hour at RT and 600 rpm. The MSD plate washed three times with 150 μL/well of TBST and added 150 μL/well of 2×MSD reading buffer diluted from 4× (MSD, R92TC-2) with water. Lastly the MSD instrument was read.

Experiment [2] concerns the target T1, STAT3. The experiment in a line: Live cell degradation kinetics in A549 HiBiT cells. The conditions noted are these: FIG. 3A, FIG. 21. The protocol: 700,000 A549 HiBiT cells were seeded in 60 mm dish and rested overnight at 37° C. Cells were transfected with LgBiT vector comprising 6.5 μg plasmid DNA+19.5 μL FuGENE HD transfection reagent per 60 mm dish (scale up/down as necessary). Following 24 h post transfection, cells were trypsinized and seeded at 2,000 cells/well in 40 μL in a 384-well plate. Cells were not seeded in the 2 outermost columns/rows to avoid evaporation. Outer wells were filled with PBS. After allowing the cells to settle overnight, Endurazine 1:100 was added to the cells by first diluting 1:10 in media and further diluting 1:10 in 40 μL of cells by adding ˜4.4 μL of diluted Endurazine in plate #1. Cells were incubated at 37° C. for 2.5 h. Compound was added with Tecan HPd300 dispenser (final DMSO=0.1%) to both plates (10 point, 1:3 dilution; 30 μM top dose). Plate #1 luminescence was read at t=0, 30 min, 1h, 2h, 4h, 6h, 8h, 16h, 24 h, 48h. Plate was returned to incubator between reads.
On the technique in general: The HiBiT peptide binds its large partner to form an active luciferase.

Experiment [3] has as its target mutant STAT3 (STAT D661Y) (Homo sapiens, UniProt P40763, D661Y). In words: degradation of mutant STAT3 in HDLM-2 cell lines, dose response. The conditions noted are these: dose response curve, tested form: diammonium. An excerpt: FIG. 9 depicts a dose response curve showing I-111 degrading mutant STAT3 (STAT D661Y) in HDLM-2 cell lines.
FIG. 12 depicts a dose response curve showing I-83 degrading mutant STAT3 (STAT D661Y) in HDLM-2 cell lines.

Experiment [4] has as its system mutant STAT3. The experiment in a line: STAT3 MSD assay, mutant STAT3 cell lines. The format is cell-based. The conditions noted are these: mutant STAT3 HEK293 cell lines, FIG. 11; tested form: diammonium. How it is done: as §1, with “The MSD plate was washed three times with 150 μL/well of TBST and added 25 μL/well of detection antibody (ab68153) to a final concentration of 1 μg/ml diluted in 1% blocking buffer and shaken for 1 hour at RT and 600 rpm. MSD plate was washed three times with 150 μL/well of TBST and added 25 μL/well of SULFO-TAG anti-rabbit antibody (MSD, R32AB-1) to a final concentration of 1 μg/mL diluted in 1% blocking buffer and shaken for 1 hour at RT and 600 rpm.” left out

In experiment [5] the target is mutant STAT3 (Homo sapiens, UniProt P40763, D661Y). The experiment in a line: STAT3 MSD assay, mutant STAT3 cell lines. The conditions noted are these: mutant STAT3 heme cell lines, FIG. 12; tested form: diammonium. The class given is cell-based. How it is done: as §1, with “The MSD plate was washed three times with 150 μL/well of TBST and added 25 μL/well of detection antibody (ab68153) to a final concentration of 1 μg/ml diluted in 1% blocking buffer and shaken for 1 hour at RT and 600 rpm. MSD plate was washed three times with 150 μL/well of TBST and added 25 μL/well of SULFO-TAG anti-rabbit antibody (MSD, R32AB-1) to a final concentration of 1 μg/mL diluted in 1% blocking buffer and shaken for 1 hour at RT and 600 rpm.” left out

The target of experiment [6] is T1, STAT3. The experiment in a line: Quantitation of STAT3 degradation in A549 cells by Western blot. The class given is cell-based. The conditions noted are these: read-out: A549 DC50, 24 hours, tested up to 30 μM or 10 μM, tested form: diammonium. The protocol: Degradation of total cellular STAT3 protein in A549 was quantitatively measured using SDS-PAGE and Western blot analysis. A549 cells (5×10^5 cells/well, 2 mL) were seeded into 6-well plates and were incubated in the incubator under 5% CO2 overnight to reach ˜80% confluency. The next day, the culture medium was changed with 1 ml fresh media. Then, 1 mL of media containing 2× compound solution was added into the well to make the final concentration of 30 μM, 10 μM, 3 μM, 1 μM, 0.3 μM and 0 μM (DMSO). The media was thoroughly mixed and incubated for 24 hours at 37° C. under 5% CO2. Then, the culture media was removed from the assay plates and the cells were washed with ice-cold PBS twice. To prepare cell lysates, 200 ul pre-chilled RIPA lysis buffer (Boston BioProducts BP-115D) with protease/phosphatase inhibitor (Roche 05892791001/Roche 04906837001) was added directly into the well to lyse the cells for 20 minutes on ice. The cell lysates were then transferred to centrifuge tubes. Insoluble part of lysates was removed by centrifuging the lysates at 13000 rpm for 20 minutes. The supernatant was then collected and mixed with 5× loading buffer (Beyotime Bio P0015) to make the final samples for SDS-PAGE analysis. The samples were heated at 100° C. for 10 minutes and cool to room temperature before centrifuging at 13000 rpm for 20 minutes. To analyze the samples by SDS-PAGE, 10 ul samples were loaded onto SDS-PAGE gel (Novex, WG1403BOX) and the SDS-PAGE gel was run for 20 minutes at 80 V, then at 120 V for 1.5 hours. The SDS-PAGE gel was then transferred to nitrocellulose membrane using the wet-transfer method at 250 mA for 1.5 hours. The membrane was then blocked with LI-COR blocking buffer (LI-COR, 927-50000) for 1 hour and was probed with primary antibody (mouse anti-STAT3 (124H6) (CST #91395) 1:2000 or mouse anti-beta-Actin (8H10D10) (CST #3700) 1:10000) at 4° C. overnight. The membrane was then washed three times with TBST buffer and probed with secondary antibody (anti-mouse IgG (LI-COR, 926-68070), 1:5000) for 1 hour at room temperature. The membrane was then scanned on a LI-COR Odyssey instrument and was quantified using Image Studio Version 5.2. Concentration at 50% degradation (DC50) was calculated by fitting dose dependent degradation data using a sigmoidal equation using GraphPad Prism Version 8.0.
Background: Immunoblotting shows a protein as a band on a membrane.

Experiment [7] concerns STAT3 mutants (WT, D661Y, D661V, Y640F, K392R). The experiment in a line: Flag-STAT3 levels of STAT3 mutants ectopically overexpressed in HEK293 cells. The conditions noted are these: 3 μM, 24 hr, tested form: diammonium. How it is done:
FIG. 11 depicts degradation results of the reduction of STAT3 in STAT3 mutants using I-83 (3 μM, 24 hr) in ectopically overexpressed HEK293 cells showing Flag-STAT3 levels (% DMSO)(y-axis) for WT, D661Y (SH2), D661V (SH2), Y640F (SH2), and K392R (DBD) mutants (x-axis).

Consider `Cn1c(=O)n(C2CCC(=O)NC2=O)c2ccc(C[C@H]3CC[C@@H](CC(=O)N4CC[C@H]5CC[C@@H](C(=O)N[C@@H](CCC(N)=O)C(=O)NC(c6ccccc6)c6ccccc6)N5C(=O)[C@@H](NC(=O)c5cc6cc(C(=O)P(=O)(O)O)ccc6[nH]5)C4)CC3)cc21` (stereo partly drawn) [Compound I-174, 2-[[(5S,8S,10aR)-8-[[(1S)-3-carbamoyl-1-(diphenylmethylcarbamoyl)propyl]carbamoyl]-6-oxo-3-[2-[(1s,4s)-4-[[1-(2,6-dioxopiperidin-3-yl)-3-methyl-2-oxo-1,3-benzodiazol-5-yl]methyl]cyclohexyl]acetyl]-octahydropyrrolo[1,2-a][1,5]diazocin-5-yl]carbamoyl]-1H-indole-5-carbonylphosphonic acid], for which the “STAT3 MSD % Amax” value at STAT3 [1] (DEL, 24 hr) is 95%; on STAT3 [1] (KI-JK, 24 hr), 97%; at STAT3 [1] (SU-DHL-1, 24 hr), above 95%; on STAT3 [1] (SUP-M2, 24 hr), 95%. Moreover, the DC50 on STAT3 [1] (DEL, 24 hr) was 0.016 µM; on STAT3 [1] (KI-JK, 24 hr), 0.047 µM; on STAT3 [1] (SU-DHL-1, 24 hr), 0.015 µM; at STAT3 [1] (SUP-M2, 24 hr), 0.086 µM. For the same compound, the “degradation of STAT3, live cell kinetics” value on STAT3 [2] was “rapid and potent degradation of STAT3”.
For `Cc1ncsc1-c1ccc(CNC(=O)[C@@H]2C[C@@H](O)CN2C(=O)[C@@H](NC(=O)CCCCc2ccc(CO[C@H](C)[C@H](CCC(N)=O)NC(=O)[C@@H]3Cc4cccc5c4N3C(=O)[C@@H](NC(=O)c3cc4cc(C(=O)P(=O)(O)O)ccc4[nH]3)CC5)cc2)C(C)(C)C)cc1`, in experiment [3], the “degradation of mutant STAT3 (STAT D661Y)” value was “degrading mutant STAT3”. The “degradation of mutant STAT3” value in the experiment on mutant STAT3 [4] is reported as “degrades mutant STAT3 HEK293 cell lines”; at mutant STAT3 [5], “degrades mutant STAT3 heme cell lines”. The DC50 at STAT3 [6] is below 30 µM. The “Flag-STAT3 levels in STAT3 mutants” value in experiment [7] is “reduction of STAT3”.

These data come from US12077555B2, “STAT degraders and uses thereof” (Kymera Therapeutics, Inc., priority 2019, dated 2024).
